From ChEMBL document CHEMBL4152205, “Therapeutic journery of nitrogen mustard as alkylating anticancer agents: Historic to future perspectives” (2018) come the findings set out here.

Each structure is given as a SMILES string.

One assay relates to MIA PaCa-2. Nature of the assay: Cytotoxicity against human MIAPaCa2 cells assessed as reduction in cell viability after 48 by MTT assay.
The next assay deals with PANC-1. In words: Cytotoxicity against human PANC1 cells assessed as reduction in cell viability after 48 by MTT assay.
The next assay concerns Hs 766. In words: Cytotoxicity against human Hs766T cells assessed as reduction in cell viability after 48 by MTT assay. A general note: Formazan colour is commonly taken as a measure of viable cells.
The test system of the next assay is MDA-MB-231. In words: Cytotoxicity against human MDA-MB-231 cells assessed as reduction in cell viability after 24 hrs by MTT assay.

Turning to `C[C@]12CC[C@H](OC(=O)Cc3ccc(N(CCCl)CCCl)cc3)C[C@@H]1CC[C@@H]1[C@@H]2CC[C@]2(C)NC(=O)CC[C@@H]12`, the IC50 in the assay with MIA PaCa-2, in the assay with PANC-1 and in the assay on Hs 766 was more than 100 µM each time.
For `O=C(CCCc1ccc(C(CCCl)CCCl)cc1)NCCNC(=O)c1ccc(-c2ccc(C3=NCCCN3)cc2)o1`, the IC50 (usually the midpoint of a concentration-inhibition curve) in the assay with MDA-MB-231 came to 5 µM.
